# Antibody variant affinities, Ab-91 heavy chain, assay 2

Target: peptide PDVDLGDISGINAS, taken from heptad repeat 2 (HR2) of SARS-CoV-2 spike.

The variants keep the light chain, the linker and the frameworks of Ab-91 (scFv order VL, three GGGGS repeats, VH).
VL: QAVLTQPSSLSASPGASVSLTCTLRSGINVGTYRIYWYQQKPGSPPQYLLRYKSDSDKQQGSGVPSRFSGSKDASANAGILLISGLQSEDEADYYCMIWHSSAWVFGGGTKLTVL
VH: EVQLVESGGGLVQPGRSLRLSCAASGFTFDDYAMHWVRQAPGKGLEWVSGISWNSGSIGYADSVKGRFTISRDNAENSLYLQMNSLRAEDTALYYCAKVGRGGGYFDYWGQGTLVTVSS

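The starting antibody came from a phage panning campaign against this peptide. In library AAYL51, one, two or three CDR residues were substituted; doubles and triples were drawn at random. Affinity was read by AlphaSeq, a pooled yeast mating assay with surface-displayed partners. Pairs that bind mate more often; barcode pairs of the diploids are counted by sequencing. Read counts were normalised to the haploid input and turned into Kd by a linear fit to BCL2-family pairs of known affinity, for each replicate. Mating was done three times.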

Positions count from residue 1 of the parent VH; H35S puts S in place of H. Affinities are written as log10 Kd with Kd in nM; a lower number is a better binder. "n.d." means that the variant was in the library but no mating with the target was seen in that replicate; the authors take this as a sign of poor binding, and no number exists. For reference, the parent read 1.86 as the reference entry and 0.88 as a member of this library. Background: pairings of library AAYL51 with three empty control strains gave a value in 21% of cases (median 4.54, 5th percentile 3.26). Values in that range, when seen in few replicates, are hard to tell from nonspecific mating. Also given: how often the same scFv was detected with the empty control strains, with their mean in brackets.

| # | changes | replicates, log10 nM | control signals |
|---|---|---|---|
| 1 | H35S G100Q R101K | n.d. / n.d. / n.d. | 0 of 9 |
| 2 | D31I G56V V99M | n.d. / n.d. / n.d. | 0 of 9 |
| 3 | D30R V99T D107A | n.d. / n.d. / n.d. | 0 of 9 |
| 4 | G56C G59E K65G | n.d. / 1.89 / n.d. | 0 of 9 |
| 5 | Y32H I51R S63C | n.d. / n.d. / n.d. | 4 of 9 (4.18) |
| 6 | W53L | n.d. / n.d. / n.d. | 0 of 9 |
| 7 | F27Y G50K G103Y | n.d. / 4.58 / n.d. | 4 of 9 (4.78) |
| 8 | G50D W53K Y105G | 6.38 / n.d. / 4.88 | 5 of 9 (4.80) |
| 9 | I58L G104E F106N | n.d. / n.d. / n.d. | 0 of 9 |
| 10 | I58Q G59T V64I | 5.34 / n.d. / n.d. | 3 of 9 (2.99) |
| 11 | Y32R S52K F106E | n.d. / n.d. / n.d. | 0 of 9 |
| 12 | T28I G100P G104D | n.d. / n.d. / n.d. | 0 of 9 |
| 13 | F106W D107I Y108A | 4.96 / 5.63 / 4.97 | 9 of 9 (5.31) |
| 14 | Y32G A61D D107A | n.d. / n.d. / n.d. | 2 of 9 (4.68) |
| 15 | A33E S55K D107V | n.d. / 5.12 / 3.49 | 3 of 9 (4.69) |
| 16 | Y32N Y105S D107K | 4.85 / 6.37 / 4.75 | 9 of 9 (4.90) |
| 17 | D31S V64I R101H | 1.83 / 1.63 / 1.19 | 2 of 9 (3.74) |
| 18 | W53S A61W D107E | 2.22 / 3.25 / n.d. | 0 of 9 |
| 19 | G56M I58E | 0.76 / 0.71 / 0.03 | 2 of 9 (4.59) |
| 20 | Y32S G100A D107F | n.d. / n.d. / 3.21 | 0 of 9 |
| 21 | S55W R101P F106M | 3.44 / n.d. / n.d. | 2 of 9 (5.04) |
| 22 | H35C Y60V A61E | n.d. / n.d. / n.d. | 1 of 9 (4.73) |
| 23 | F27K S55D F106V | 4.41 / n.d. / 4.47 | 4 of 9 (4.92) |
| 24 | G26I G104T | 3.91 / 5.07 / 4.67 | 2 of 9 (4.78) |
| 25 | F29Q D31T G59T | n.d. / n.d. / n.d. | 0 of 9 |
| 26 | D30P N54P Y108E | n.d. / n.d. / n.d. | 0 of 9 |
| 27 | G26R S57G F106I | n.d. / n.d. / n.d. | 0 of 9 |
| 28 | F27G S52I S63C | n.d. / n.d. / n.d. | 0 of 9 |
| 29 | W53P S63K | 1.56 / 1.53 / 1.14 | 0 of 9 |
| 30 | D62Q V64D G100S | n.d. / n.d. / n.d. | 0 of 9 |
| 31 | D62W G100F | 4.61 / 6.70 / 4.11 | 5 of 9 (5.34) |
| 32 | F27Q Y60M S63W | n.d. / n.d. / n.d. | 0 of 9 |
| 33 | G26D F29R A33Y | 4.13 / 4.71 / n.d. | 5 of 9 (4.78) |
| 34 | F29V D31M K65D | n.d. / n.d. / n.d. | 0 of 9 |
| 35 | D31C M34R S57T | n.d. / 5.25 / n.d. | 2 of 9 (3.49) |
| 36 | A33V M34G Y105S | n.d. / 5.60 / n.d. | 2 of 9 (4.54) |
| 37 | S52Q G100L Y108Q | n.d. / n.d. / n.d. | 1 of 9 (4.02) |
| 38 | F27R D31T G100A | 4.45 / 5.47 / n.d. | 2 of 9 (4.89) |
| 39 | G26Y G103W | n.d. / n.d. / n.d. | 0 of 9 |

The first 6 entries again:

| changes | replicates, log10 nM | control signals |
|---|---|---|
| H35S G100Q R101K | n.d. / n.d. / n.d. | 0 of 9 |
| D31I G56V V99M | n.d. / n.d. / n.d. | 0 of 9 |
| D30R V99T D107A | n.d. / n.d. / n.d. | 0 of 9 |
| G56C G59E K65G | n.d. / 1.89 / n.d. | 0 of 9 |
| Y32H I51R S63C | n.d. / n.d. / n.d. | 4 of 9 (4.18) |
| W53L | n.d. / n.d. / n.d. | 0 of 9 |

The measurements come from Engelhart et al. 2022 (doi:10.1038/s41597-022-01779-4) through the FLAb antibody collection.